Assay results: patent US4215215A, “9-Phenyl-nonate traene compounds” (Hoffmann-La Roche Inc., priority 1979, dated 1980)

Test system: mice
Conditions: mouse, in vivo, ip

Question: What does the source list for `COc1cc(C)c(C=CC(C)=CC=CC(C)=CC(=O)O)c(C)c1C` [Substance A, 9-(4-methoxy-2,3,6-trimethyl-phenyl)-3,7-dimethyl-nona-2,4,6,8-tetraen-1-oic acid]?
Answer: LD10 (1440 min): > 4000 mg/kg; LD90 (1440 min): > 4000 mg/kg; LD10 (14400 min): 580 mg/kg; LD90 (14400 min): 890 mg/kg; LD10 (28800 min): 580 mg/kg; LD90 (28800 min): 890 mg/kg

Read-outs that look alike come from different tables or passages of the source.
